Assay results from patent US7384912B2, “Treatment of bone disorders with skeletal anabolic drugs” (Osteotrophin, LLC, priority 2002, dated 2008).
Marks after values point to notes of the source that are not given here.

System: ovariectomized (OVX) rats
Assay: Biomechanical measures of strength in ovariectomized rats
Assay type: in vivo, rat
Conditions: 40 μg/kg/day s.c. once daily, 90 days

hPTH-(1-34)
Mid-Femur Young's Modulus (E): 10.0 ± 0.2^c Gpa
